Values of other authors as cited in paper PMC9866728, “Dosing Methods to Enable Cell-Based In Vitro Testing of Complex Substances: A Case Study with a PAH Mixture” (Toxics, 2022).

Settings: Table S1; ref PubChem; cited from earlier work

c1ccc2ccccc2c1 [Naphthalene]
LogKow (PubChem): 3.3
